The values below come from PubChem BioAssay AID729 (The Scripps Research Institute Molecular Screening Center, 2007).

Amino acid sequences for entries named in this document (tags omitted).
UniProt O95136, whole entry: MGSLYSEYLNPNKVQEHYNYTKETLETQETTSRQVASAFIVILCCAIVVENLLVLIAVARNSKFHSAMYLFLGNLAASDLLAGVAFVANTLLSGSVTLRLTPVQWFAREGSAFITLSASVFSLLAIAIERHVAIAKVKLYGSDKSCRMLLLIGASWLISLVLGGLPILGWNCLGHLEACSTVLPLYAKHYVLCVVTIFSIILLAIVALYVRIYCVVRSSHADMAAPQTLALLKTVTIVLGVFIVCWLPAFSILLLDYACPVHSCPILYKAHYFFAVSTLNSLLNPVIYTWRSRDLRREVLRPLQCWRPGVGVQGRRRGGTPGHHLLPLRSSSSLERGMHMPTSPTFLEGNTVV

The list shows a part of the results, in another mix than the full data. The source made the active and inactive calls. No stated cut-off is given here; in the data, active means activation above about 16%; inactive means the rest.

In this assay the target is Sphingosine 1-phosphate receptor 2 (Homo sapiens) (UniProt O95136). Briefly: S1P2 receptor agonists, primary screen, cell-based (AID 729).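 Further: 0% = vehicle low control and 100% = maximal reference agonist.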 To be noted: S1P2-expressing cell line, agonist reporter read-out; at 4.5 µM; hits give high values.
On to `Cc1nc2ccc3ccccc3c2o1.O=[N+]([O-])c1cc([N+](=O)[O-])c(O)c([N+](=O)[O-])c1`, for which the activation was inactive: -6.03%.
In the case of `COc1ccccc1OP(C)(=O)Nc1ccc(C)c(C)c1` (stereo not given), the activation was inactive: -1.66%.
With `Cc1c(NP(C)(=O)Oc2ccc(C(C)C)cc2)c(=O)n(-c2ccccc2)n1C` (stereo not given) the figure was inactive: -6.8%; with `CCc1ccc(OP(C)(=O)O)cc1`, inactive: -3.03%; with `COc1ccccc1OP(C)(=O)Nc1ccc(C)cc1C` (stereo not given), inactive: -2.72%.
With `CP(=O)(Nc1ccccn1)Oc1ccccc1` (stereo not given) the figure was inactive: -5.86%; with `CN(C)CCOC(=O)C(O)(c1ccccc1)C1CCCC1` (stereo not given), inactive: -4.22%; with `COc1ccc(OP(C)(=O)Nc2ccccn2)cc1` (stereo not given), inactive: -2.77%.
On to `CP(=O)(Nc1ccc(Cl)cc1)Oc1ccc(F)cc1` (stereo not given), for which the activation was inactive: -8.29%.
With `CC(C)(C)c1ccc(OP(C)(=O)O)cc1` the figure was inactive: -10.1%; with `CCN(CC)CC(O)COC(=O)C(O)(c1ccccc1)C1CCCCC1` (stereo not given), inactive: 1.42%; with `CP(=O)(Oc1ccccc1)N1CCOC1=O` (stereo not given), inactive: -2.82%.
With `COc1ccccc1OP(C)(=O)Nc1c(C)n(C)n(-c2ccccc2)c1=O` (stereo not given) the figure was inactive: -5.29%.
For `CP(=O)(OC12CC3CC(CC(C3)C1)C2)OC12CC3CC(CC(C3)C1)C2`, the activation was inactive: -1.16%.
Consider `COc1ccc(OP(C)(=O)Nc2cccc(Br)c2)cc1` (stereo not given), for which the activation was inactive: -2.45%.
Next, `CN(C)CCOC(=O)C(O)(c1ccccc1)C1CCCCC1` (stereo not given): inactive: -7.55%; `CP(=O)(Nc1ccc2c(c1)OCCO2)Oc1ccccc1` (stereo not given): inactive: -10.2%.
In the case of `CCOP(C)(=S)SCC(=O)NC(C)(CC)C(=O)O` (stereo not given), the activation was inactive: -6.08%.
With `CP(=O)(Nc1ccccc1F)Oc1ccccc1` (stereo not given) the figure was inactive: -10.4%; with `CCN(CC)CCCOC(=O)C(O)(c1ccccc1)C1CCCCC1` (stereo not given), inactive: -5.03%; with `CP(=O)(Nc1ccccc1)Oc1ccc(F)cc1` (stereo not given), inactive: -4.03%.
For the compound `Cc1cc(C)cc(OP(C)(=O)Nc2ccccn2)c1` (stereo not given), the activation is inactive: -4.85%.
With `Cc1ccc(C)c(NP(C)(=O)Oc2ccccc2)c1` (stereo not given) the figure was inactive: -5.32%; with `Cc1cc(C)cc(OP(C)(=O)Nc2ccc(C)cc2C)c1` (stereo not given), inactive: -4.01%; with `Cc1nc2ccc3ccccc3c2s1.O=[N+]([O-])c1cc([N+](=O)[O-])c(O)c([N+](=O)[O-])c1`, inactive: -5.53%.
With `COc1ccccc1OP(C)(=O)Nc1c(C)cccc1C` (stereo not given) the figure was inactive: -12.4%; with `CP(=S)(Nn1cnnc1)Oc1ccccc1` (stereo not given), inactive: -3.54%; with `CP(=O)(Nc1ccccn1)Oc1ccc(Cl)cc1` (stereo not given), inactive: 2.37%.
With `CP(=O)(NC(=O)Nc1ccccc1)Oc1ccccc1` (stereo not given) the figure was inactive: -1.55%; with `COc1ccc(OP(C)(=O)Nc2cccc(F)c2)cc1` (stereo not given), inactive: -6.46%.
